Results published in ChEMBL document CHEMBL1129333, “Synthesis and biological activities of flavonoid derivatives as A3 adenosine receptor antagonists” (J Med Chem, 1996).

Test system: Adenosine A1 receptor (Rattus norvegicus) / A3 receptor (Homo sapiens)
Assay: Ratio of binding affinities between rA1 and human A3.

Ratio: 20
Structure (SMILES): Cc1cc(C)c(-c2oc3ccc(Cl)cc3c(=O)c2Cl)c(C)c1
